From patent publication US20110117008A1, “USE OF AVICINS TO DELIVER THERAPEUTIC AND DIAGNOSTIC AGENTS” (Research Development Foundation, priority 2007, published 2011)
Where a name gives a salt, the structure may show the parent alone.

System: full thickness pig skin
Conditions: female
Description: (§1) HPLC was used to quantify delivered mass, and to calculate permabilities in lag times. Error bar represents mean+/−standard deviation.
as §1

Lag time: 10.3 ± 1.1 h
Structure (SMILES): CCCNC(C)C(=O)Nc1ccccc1C (stereo not shown) [Prilocaine HCl]
